Test results published in patent publication US20090156614A1, “Selective androgen receptor modulators, analogs and derivatives thereof and uses thereof” (priority 2006, published 2009).
Read-outs that look alike come from different tables or passages of the source.

Tests used:
[1] = target: AR (Rattus norvegicus, UniProt P15207)
[2] = target: T1, Cytosolic AR (Rattus norvegicus, UniProt P15207); assay: AR competitive binding assay (3H-MIB displacement, rat ventral prostate cytosol)
T1 construct: from tissue; host or cells: ventral prostate cytosol of Sprague-Dawley rats
T1 sequence (P15207 1-902): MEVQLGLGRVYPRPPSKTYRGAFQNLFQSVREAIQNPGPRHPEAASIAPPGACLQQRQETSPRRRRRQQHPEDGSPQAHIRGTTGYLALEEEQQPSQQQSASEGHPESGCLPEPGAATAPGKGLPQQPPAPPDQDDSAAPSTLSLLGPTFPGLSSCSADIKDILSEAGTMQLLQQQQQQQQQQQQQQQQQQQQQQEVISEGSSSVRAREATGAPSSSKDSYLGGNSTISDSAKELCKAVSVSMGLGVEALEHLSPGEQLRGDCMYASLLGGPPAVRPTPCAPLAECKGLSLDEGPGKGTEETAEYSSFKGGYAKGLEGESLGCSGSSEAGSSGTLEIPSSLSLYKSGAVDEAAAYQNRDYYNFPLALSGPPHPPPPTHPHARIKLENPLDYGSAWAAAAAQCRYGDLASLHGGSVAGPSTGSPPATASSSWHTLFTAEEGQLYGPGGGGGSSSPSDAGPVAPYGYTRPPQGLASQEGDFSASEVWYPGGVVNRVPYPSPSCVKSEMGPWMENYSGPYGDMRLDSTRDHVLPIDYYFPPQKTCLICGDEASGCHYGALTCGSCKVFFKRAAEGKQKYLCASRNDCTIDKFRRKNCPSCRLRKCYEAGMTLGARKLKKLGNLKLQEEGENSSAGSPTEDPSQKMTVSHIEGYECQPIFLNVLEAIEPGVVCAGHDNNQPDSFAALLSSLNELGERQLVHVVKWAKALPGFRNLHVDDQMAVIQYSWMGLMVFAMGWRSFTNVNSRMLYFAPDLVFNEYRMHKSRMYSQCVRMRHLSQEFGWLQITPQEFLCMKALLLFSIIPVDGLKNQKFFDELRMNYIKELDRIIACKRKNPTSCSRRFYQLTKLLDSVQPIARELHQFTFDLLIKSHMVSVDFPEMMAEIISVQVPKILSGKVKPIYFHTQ

Compound | in vivo activity in the levator ani muscle, bone, and pituitary [1] | in vivo activity in the prostate [1] | Ki ([2]; read-out: Affinity) | Ki ([2]; read-out: Ki) | Ki [2]
CC(=O)Nc1ccc(OC[C@](C)(O)C(=O)Nc2ccc([N+](=O)[O-])c(C(F)(F)F)c2)cc1 [Compound S-4] | full agonists | partial agonists | 3.98 ± 0.7 nM | 4 ± 0.7 nM | 
C[C@](O)(COc1ccccc1)C(=O)Nc1ccc([N+](=O)[O-])c(C(F)(F)F)c1 [Compound S-9] |  |  |  |  | 4.6 ± 0.26 nM
C[C@](O)(CS(=O)(=O)c1ccc(F)cc1)C(=O)Nc1ccc([N+](=O)[O-])c(C(F)(F)F)c1 [Compound X-3] |  |  | 28 ± 10 nM |  | 
